The list shows a part of the results, in another mix than the full data. The source made the active and inactive calls. The call rests on the fitted dose curve; in most records, active means well fitted activation curve with a large enough effect; inconclusive means small, poorly fitted or top-dose-only effect; inactive means flat fitted curve, though single readings scatter.
target: Beta-2 adrenergic receptor (Homo sapiens) (UniProt P07550); experiment: qHTS assay of beta-arrestin-biased ligands of beta2-adrenergic receptor; details: beta-arrestin recruitment to beta2AR, cell-based reporter; at 46.1 µM (top of the series);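 further: 0% = DMSO controls and full agonism = EC100 isoproterenol or metaproterenol; nearly all actives have a fitted effect of over 65% in size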
Description: NIH Molecular Libraries Probe Production Network [MLPCN]
NIH Chemical Genomics Center [NCGC]
PI: Bryan Roth and Bob Lefkowitz
The concept of biased agonism is an emerging concept of molecular pharmacology which proposes that seven transmembrane receptors (7TMRs) or G protein-coupled receptors (GPCRs), exist in multiple signaling conformations and complexes and that ligands (either agonists or antagonists) can induce signaling biased responses for distinct signal transduction cascades.
Furthermore, accumulating evidence over the last decade has drawn attention to a novel function of beta-arrestins as signal transducers that scaffold various signaling molecules upon activation of 7TMRs. […] This beta-arrestin-biased signaling presumably leads to distinct physiological outcomes from those by G protein activation.
Additionally, the active receptor conformations which […] on this beta-arrestin signaling are likely different from those activating G protein signaling
The goal of this screening project will be to discover and optimize novel beta-arrestin-biased ligands for beta2-AR signaling. A luminescent cell-based assay for beta2-AR-mediated agonism, known as the Tango assay, has been validated in which ligand binding of a recombinant beta2-AR and subsequent recruitment of a recombinant beta-arrestin lead to the release of the transcriptional activator tTA, which upregulates transcription of a tTA-responsive luciferase gene. […] Compounds were screened as a concentration-titration series that ranged from 46 microM to 0.6 nM.
NCGC Assay Protocol Summary:
Tango cells were dispensed into white, solid, tissue-culture-treated 1536-well plates at 1500 cells/well in DMEM, containing 1% fetal bovine serum (FBS). Then, 23 nL of compounds or DMSO were delivered to each well using a pin tool. Plates were incubated at 37 degrees C, 5% CO2 for 18 hr. Then 2.5 uL luminescent substrate mix (in-house prepared: 150 mM Tris-Cl, pH 7.6, 3 mM MgCl2, 1% Triton X-100, 5 mM DTT, 0.5 mM CoA, 0.15 mM ATP, 0.44 mM D-luciferin, final concentrations) was added to each well. Plates were then incubated for 15 minutes at room temperature, and subsequently measured on a ViewLux plate reader for luminescent signal using a clear filter with a 10 second exposure and 2x binning. The %Activity was determined from the corrected luminescence values.
Concentration-response curves were fitted to the signals arising from the resulting luminescence. The concentration-effect curves were then classified based on curve quality (r2), response magnitude and degree of measured activity, and compounds were subsequently categorized based on their curve class.
Keywords: biased agonism, beta2-AR, beta-arrestin, GPCR, 7TMR, Tango, luminescence, MLSMR, MLPCN, NIH Roadmap, qHTS, NCGC

**Q.** `O=C(O)COc1ccc([As](=O)(O)O)cc1[N+](=O)[O-]` was tested. Which activation did it give?
**A.** Its activation is inactive: 4.41%.

**Q.** With `Nc1ccccc1[As](=O)(O)c1ccccc1` as the molecule, how does the activation read?
**A.** The activation was inactive: -0.343%.

**Q.** `CS(=O)(=O)c1cc([N+](=O)[O-])c2no[n+]([O-])c2c1` was tested. Which activation did it give?
**A.** The activation was inactive: -0.302%.

**Q.** With `O=P(Nc1nccs1)(Oc1ccccc1)Oc1ccccc1` as the molecule, how does the activation read?
**A.** The activation was inactive: -0.0984%.

**Q.** Which activation does the source give for `O=P(Nc1nccs1)(c1ccccc1)c1nc2ccccc2s1` (stereo not drawn) here?
**A.** The activation was inactive: -0.194%.

**Q.** How did the activation turn out when `CCOP1(=S)c2c(C)nn(CCC#N)c2N=C(c2ccccc2F)N1C` (stereo not drawn) was run?
**A.** Its activation is inactive: 0.135%.

**Q.** How did the activation turn out when `O=[N+]([O-])c1ccc2c(c1)nnn2O` was run?
**A.** The activation was inactive: 3.37%.

**Q.** Which activation does the source give for `CCOP1(=S)c2c(C)nn(CCC#N)c2N=C(c2ccc(F)cc2)N1C` (stereo not drawn) here?
**A.** Its activation is inactive: -0.0252%.

**Q.** How did the activation turn out when `CN(C(=O)Cc1ccccc1)[C@@H]1CC[C@]2(CCCO2)C[C@H]1N1CCCC1` was run?
**A.** Its activation is inactive: -0.165%.

**Q.** `N#CCCN(C(=O)COC(=O)C(O)(c1ccccc1)c1ccccc1)c1ccc(F)cc1` was tested. Which activation did it give?
**A.** Its activation is inactive: -0.272%.

**Q.** Which activation does the source give for `NC(=O)Nc1ccc([As](=O)(O)O)cc1` here?
**A.** The activation was inactive: -0.343%.

**Q.** With `O=[As](O)(c1cccc(O)c1)c1cccc(O)c1` as the molecule, how does the activation read?
**A.** Its activation is inactive: -0.782%.

**Q.** For `CS(=O)(=O)c1ccc(Cl)c(NC(=O)COC(=O)C(O)(c2ccccc2)c2ccccc2)c1`, which activation is on record?
**A.** Its activation is inactive: 0.152%.

**Q.** Which activation does the source give for `O=[As](O)(O)c1cccnc1` here?
**A.** Its activation is inactive: 0.202%.

**Q.** For `COc1cc(C(=O)NCC2(N3CCOCC3)CCCCC2)cc(Cl)c1OC(C)C`, which activation is on record?
**A.** The activation was inactive: -0.126%.

**Q.** How did the activation turn out when `O=C(OC1CN2CCC1CC2)c1ccc(Cl)cc1` (stereo not drawn) was run?
**A.** The activation was inactive: 0.0676%.

**Q.** Which activation does the source give for `CCOP(=O)(Nc1cccc2ccccc12)OCC` here?
**A.** Its activation is inactive: -1.99%.

**Q.** For `COc1cc(C2NCCC3(OCCO3)C2(C)C)cc(OC)c1OC` (stereo not drawn), which activation is on record?
**A.** The activation was inactive: -0.22%.

**Q.** How did the activation turn out when `CCCOP(=S)(Nc1nc(N)cc(=O)[nH]1)OCCC` was run?
**A.** Its activation is inactive: 0.396%.

**Q.** With `Nc1cccc2c([As](=O)(O)O)cccc12` as the molecule, how does the activation read?
**A.** Its activation is inactive: 0.261%.

**Q.** How did the activation turn out when `Cc1ccc(NCCc2c([N+](=O)[O-])cc([N+](=O)[O-])cc2[N+](=O)[O-])cc1` was run?
**A.** Its activation is inactive: -0.139%.

**Q.** How did the activation turn out when `CC(C)(C)C(=O)NC(Sc1ncccn1)C(Cl)(Cl)Cl` (stereo not drawn) was run?
**A.** The activation was inactive: -1.16%.

**Q.** Which activation does the source give for `Clc1n[nH]nc1-c1nn[nH][15n]1` here?
**A.** The activation was inactive: -0.061%.

**Q.** How did the activation turn out when `CCOP(=O)(Nc1ccc(C)cn1)OCC` was run?
**A.** The activation was inactive: 0.282%.

**Q.** For `CCOP(=O)(NC(=NC(C)c1ccccc1)NC(C)c1ccccc1)OCC` (stereo not drawn), which activation is on record?
**A.** Its activation is inactive: 0.27%.

**Q.** How did the activation turn out when `CCC1=CC2Cc3nc4ccc(Cl)cc4c(N)c3C(C1)C2` (stereo not drawn) was run?
**A.** The activation was inactive: 0.0553%.

**Q.** For `O=P1(Nc2ccccn2)COc2ccccc2OC1`, which activation is on record?
**A.** Its activation is inactive: 0.386%.

**Q.** For `O=[As](O)(c1ccccc1Br)c1ccccc1Br`, which activation is on record?
**A.** The activation was inactive: -0.646%.

**Q.** Which activation does the source give for `CN(C(=O)Cc1ccc(Cl)c(Cl)c1)[C@@H]1CCCC[C@H]1N1CCCC1` here?
**A.** The activation was inactive: -0.187%.

**Q.** Which activation does the source give for `CC(C)/C=N\N=C(\N)N[N+](=O)[O-]` here?
**A.** The activation was inactive: -0.0811%.

**Q.** For `COc1ccccc1CNC(=O)COC(=O)C(O)(c1ccccc1)c1ccccc1`, which activation is on record?
**A.** The activation was inactive: -0.441%.

**Q.** How did the activation turn out when `O=C(/C=C/c1ccccc1)OC1CN2CCC1CC2` (stereo not drawn) was run?
**A.** Its activation is inactive: 0.504%.

**Q.** How did the activation turn out when `CN(C)C1(CNC(=O)c2ccc(S(C)(=O)=O)cc2)CCCCC1` was run?
**A.** Its activation is inactive: 0.204%.

**Q.** `Cc1ccc(C(=O)OC2CN3CCC2CC3)cc1` (stereo not drawn) was tested. Which activation did it give?
**A.** Its activation is inactive: 0.163%.

**Q.** With `CC1CCC(C(C)C)C(OP(=O)(Nc2ccccn2)c2ccccc2)C1` (stereo not drawn) as the molecule, how does the activation read?
**A.** The activation was inactive: -0.298%.

**Q.** With `Cc1nn(-c2ccccc2)c2c1P(=O)(N1CCOCC1)N(C)C(c1ccccc1)=N2` (stereo not drawn) as the molecule, how does the activation read?
**A.** The activation was inactive: 0.0605%.

**Q.** For `O=[As](O)(c1cccs1)c1cccs1`, which activation is on record?
**A.** Its activation is inactive: -0.463%.

**Q.** Which activation does the source give for `Cc1ccc(OCC(=O)OC2CN3CCC2CC3)cc1` (stereo not drawn) here?
**A.** The activation was inactive: -0.271%.

**Q.** With `NS(=O)(=O)c1cccc(NC(=O)COC(=O)C(O)(c2ccccc2)c2ccccc2)c1` as the molecule, how does the activation read?
**A.** The activation was inactive: 0.133%.

**Q.** For `O=P1(Nc2ccc(Br)cn2)COc2ccccc2OC1`, which activation is on record?
**A.** The activation was inactive: -0.0536%.

**Q.** Which activation does the source give for `Nc1cccc([As](=O)(O)c2ccccc2)c1` here?
**A.** Its activation is inactive: 1.11%.

**Q.** For `O=P1(Nc2ncccn2)COc2ccccc2OC1`, which activation is on record?
**A.** The activation was inactive: 0.848%.

**Q.** For `Cc1cc(SC(NC(=O)c2ccccc2)C(Cl)(Cl)Cl)nc(C(C)C)n1` (stereo not drawn), which activation is on record?
**A.** Its activation is inactive: -0.814%.

**Q.** For `CCCCOc1ccc(C(=O)NCC2(N3CCCCC3)CCCCC2)cc1OC`, which activation is on record?
**A.** Its activation is inactive: 0.0214%.

**Q.** With `CCOC(=O)Nc1ccc([As](=O)(O)O)c(O)c1` as the molecule, how does the activation read?
**A.** Its activation is inactive: -0.532%.

**Q.** How did the activation turn out when `O=[N+]([O-])c1ccc(Nc2ccc(Oc3ccc([N+](=O)[O-])cc3[N+](=O)[O-])cc2)c([N+](=O)[O-])c1` was run?
**A.** Its activation is inactive: -0.263%.

**Q.** How did the activation turn out when `Cc1cc(SC(NC=O)C(Cl)(Cl)Cl)ncn1` (stereo not drawn) was run?
**A.** The activation was inactive: 0.2%.

**Q.** `O=P(Nc1ccccn1)(c1cccc2ccccc12)c1cccc2ccccc12` was tested. Which activation did it give?
**A.** Its activation is inactive: 0.133%.

**Q.** `CCOC(=O)Nc1cccc([As](=O)(O)O)c1` was tested. Which activation did it give?
**A.** The activation was inactive: -0.978%.

**Q.** For `O=C(Nc1ccncc1[N+](=O)[O-])c1ccc([N+](=O)[O-])cc1[N+](=O)[O-]`, which activation is on record?
**A.** Its activation is inactive: 0.0187%.

**Q.** `O=C(COc1ccccc1)OC1CN2CCC1CC2` (stereo not drawn) was tested. Which activation did it give?
**A.** Its activation is inactive: -0.153%.

**Q.** With `COP1(=S)c2c(C)nn(CCC#N)c2N=C(c2ccc(F)cc2)N1C` (stereo not drawn) as the molecule, how does the activation read?
**A.** Its activation is inactive: -0.429%.

**Q.** Which activation does the source give for `CCC(C)N(CC(C)C)C(=S)SC(NC(C)=O)C(Cl)(Cl)Cl` (stereo not drawn) here?
**A.** The activation was inactive: -1.18%.

**Q.** How did the activation turn out when `CCOC(=O)c1ccc(NC(=O)C(C)(CCl)SC)cc1` (stereo not drawn) was run?
**A.** The activation was inactive: -0.0757%.

**Q.** For `O=C(OC1CN2CCC1CC2)c1cccc([N+](=O)[O-])c1` (stereo not drawn), which activation is on record?
**A.** The activation was inactive: -0.704%.

**Q.** Which activation does the source give for `COc1cc(I)ccc1[As](=O)(O)O` here?
**A.** The activation was inactive: -0.14%.

**Q.** Which activation does the source give for `COc1ccc2nc(NP(=O)(c3ccccc3)c3ccccc3)sc2c1` here?
**A.** Its activation is inactive: -0.131%.

**Q.** Which activation does the source give for `Cc1cc(=O)[nH]c(N[N+](=O)[O-])n1` here?
**A.** Its activation is inactive: -0.155%.

**Q.** With `O=C(OC1CN2CCC1CC2)C12CC3CC(CC(C3)C1)C2` (stereo not drawn) as the molecule, how does the activation read?
**A.** The activation was inactive: -0.0208%.

**Q.** With `Cc1c2c(nc3ccccc13)SC(C(Cl)Cl)C2` (stereo not drawn) as the molecule, how does the activation read?
**A.** The activation was inactive: 0.0486%.

**Q.** Which activation does the source give for `COc1ccc(N/C(=N/P(=O)(N2CCOCC2)N2CCOCC2)N2CCOCC2)cc1` here?
**A.** Its activation is inactive: -0.169%.

**Q.** How did the activation turn out when `Cc1ccc2nc3c(c(C)c2c1)CC(C(Cl)Cl)S3` (stereo not drawn) was run?
**A.** Its activation is inactive: 0.327%.

**Q.** Which activation does the source give for `Cc1ccc(OP(=O)(Nc2ccc([N+](=O)[O-])cn2)Oc2ccc(C)cc2)cc1` here?
**A.** The activation was inactive: -0.627%.
